# Tested on: μ-opioid receptors
# Assay: Evaluation of antagonist activity, guinea pig ileum test (responses to DAMGO)
# Experimental: Agonist/antagonist activity at the μ-opioid receptor was determined using the well known guinea pig ileum test. Briefly, an a section of ileum section was placed in a stabilizing solution in a tensed state. Transducers were used to measure changes in tension upon electrical stimulation to the tissue before and after challenge with a potential agonist/antagonist Using a control, constriction inhibition, and constriction inhibition cancellation, may be measured.
# The results are expressed as a percent of the control response to DAMGO (decrease in which contract amplitude)
compound,measurement,setting,value
"C=CCN1CC[C@]23c4c5ccc(O)c4O[C@H]2C(=O)CC[C@@]3(O)[C@H]1C5 [naloxone, reference compound]",Responses to DAMGO (1.0E−07 M) in the presence of increasing concentrations of the compounds,1.0E−07 M,−6% of the control response to DAMGO
same,Responses to DAMGO (1.0E−07 M) in the presence of increasing concentrations of the compounds,5.0E−09 M,85% of the control response to DAMGO
same,Responses to DAMGO (1.0E−07 M) in the presence of increasing concentrations of the compounds,20E−08 M,51% of the control response to DAMGO

# — patent publication US20090047279A1, “(R)-N-Stereoisomers of 7,8-Saturated-4,5-Epoxy-Morphinanium Analogs” (Progenics Pharmaceuticals, Inc., priority 2006, published 2009)
